Measurements: paper PMC2990756, “Quantitative High-Throughput Screening Identifies 8-Hydroxyquinolines as Cell-Active Histone Demethylase Inhibitors” (PLoS ONE, 2010)
pIC50: −log10 of the molar value.

The chains behind the UniProt entries cited, without tags or fusion partners. Residues count along the entry.
UniProt Q9GZT9, 181-426 limits assumed: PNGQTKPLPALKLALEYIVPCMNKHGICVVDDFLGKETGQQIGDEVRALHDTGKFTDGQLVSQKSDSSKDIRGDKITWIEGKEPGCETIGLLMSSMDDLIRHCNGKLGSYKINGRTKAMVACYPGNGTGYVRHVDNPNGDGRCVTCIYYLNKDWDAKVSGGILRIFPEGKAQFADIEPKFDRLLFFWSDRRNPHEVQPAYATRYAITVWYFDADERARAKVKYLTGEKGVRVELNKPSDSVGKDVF

Biological target: PHD2 (catalytic domain) (Homo sapiens, UniProt Q9GZT9)
Experiment: MALDI-TOF MS peptide hydroxylation assay, PHD2

Compound: O=C(O)c1ccc(O)c2ncccc12 [SID 85736331, 5-carboxy-8-hydroxyquinoline]
- pIC50: 4.84
